Ab-14 heavy chain CDR variants: yeast mating affinities

Source: Li et al. 2023 (doi:10.1038/s41467-023-39022-2), MIT Lincoln Laboratory and A-Alpha Bio; data file from the FLAb repository.

Target: peptide PDVDLGDISGINAS, taken from heptad repeat 2 (HR2) of SARS-CoV-2 spike.

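Phage display of a naive human antibody library on the peptide gave the parent. Designed CDR sequences, proposed from the first random library and measured here. Their group label is 14H_Ctrl (Ctrl: baseline library sampled from a position-specific scoring matrix, with some repeated check sequences). The assay is AlphaSeq: two haploid yeast populations carry antibody and antigen on their surface. Mating (16 h, 30 °C) was followed by selection of diploids and sequencing of their barcodes. Scores were corrected for input abundance and mapped to Kd with protein pairs of known affinity run in the same pool. The assay was run in six technical replicates.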

Parent: Ab-14, a human scFv built as VH, a 15-residue (Gly4Ser)3 linker, VL. Only the CDRs of the heavy chain vary.
VH: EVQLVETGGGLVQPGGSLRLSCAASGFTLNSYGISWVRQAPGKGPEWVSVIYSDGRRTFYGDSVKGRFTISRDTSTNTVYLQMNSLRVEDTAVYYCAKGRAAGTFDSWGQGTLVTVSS
VL: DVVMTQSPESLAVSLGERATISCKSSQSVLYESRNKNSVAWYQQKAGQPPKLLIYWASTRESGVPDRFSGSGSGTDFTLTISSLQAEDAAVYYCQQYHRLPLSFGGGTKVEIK

Substitutions are numbered in sequence along the VH above, starting at 1 (not Kabat). Scale: log10 of Kd in nM, estimated from mating counts; low values are strong binders. "n.d." means that the variant was in the library but no mating with the target was seen in that replicate; the authors take this as a sign of poor binding, and no number exists. Background: pairings of all heavy chain designs with three empty control strains gave a value in 1% of cases (median 2.08, 5th percentile 0.84). Values in that range, when seen in few replicates, are hard to tell from nonspecific mating. Also given: how often the same scFv was detected with the empty control strains, with their mean in brackets.

{"changes": "N30G I34S G61S V64G R100A", "log10 Kd, replicates": "n.d. n.d. n.d. n.d. n.d. n.d.", "control signals": "0 of 18"}
{"changes": "A102S", "log10 Kd, replicates": "2.12 n.d. n.d. n.d. n.d. n.d.", "control signals": "0 of 18"}
{"changes": "T28M G61H R100W A101T", "log10 Kd, replicates": "-0.48 -0.28 0.07 -0.33 n.d. -0.33", "control signals": "0 of 18"}
{"changes": "F59Y F105D", "log10 Kd, replicates": "n.d. n.d. 2.20 n.d. n.d. 2.73", "control signals": "0 of 18"}
{"changes": "T28S D106L", "log10 Kd, replicates": "n.d. 2.37 1.78 1.77 2.09 n.d.", "control signals": "0 of 18"}
{"changes": "S31D R56K R100Q A101N", "log10 Kd, replicates": "1.08 1.43 0.50 0.69 1.24 1.18", "control signals": "0 of 18"}
{"changes": "L29M G61Q A101V", "log10 Kd, replicates": "n.d. 1.14 3.09 1.50 1.11 0.77", "control signals": "0 of 18"}
{"changes": "R100K S107D", "log10 Kd, replicates": "n.d. n.d. n.d. 1.43 n.d. n.d.", "control signals": "0 of 18"}
{"changes": "G26K F27R L29I S31D G55Q A101N", "log10 Kd, replicates": "n.d. n.d. n.d. n.d. n.d. n.d.", "control signals": "0 of 18"}
{"changes": "S31D S63N K65R G99D F105I", "log10 Kd, replicates": "n.d. n.d. n.d. n.d. n.d. n.d.", "control signals": "0 of 18"}
{"changes": "R100Y A101N", "log10 Kd, replicates": "2.08 1.48 n.d. 0.79 1.29 2.17", "control signals": "0 of 18"}
{"changes": "R56F R100F", "log10 Kd, replicates": "n.d. n.d. n.d. n.d. n.d. n.d.", "control signals": "0 of 18"}
{"changes": "F59I G61T", "log10 Kd, replicates": "n.d. n.d. n.d. n.d. n.d. 2.11", "control signals": "0 of 18"}
{"changes": "N30S S31E G61N A102H T104L S107V", "log10 Kd, replicates": "n.d. n.d. n.d. n.d. n.d. n.d.", "control signals": "1 of 18 (1.89)"}
{"changes": "S31D I51M S107E", "log10 Kd, replicates": "n.d. n.d. n.d. n.d. n.d. n.d.", "control signals": "0 of 18"}
{"changes": "S53A G99N", "log10 Kd, replicates": "1.46 2.31 1.04 0.48 1.73 1.93", "control signals": "0 of 18"}
{"changes": "F59A R100T", "log10 Kd, replicates": "0.63 0.82 0.74 0.69 0.97 1.21", "control signals": "0 of 18"}
{"changes": "S63E A101Q", "log10 Kd, replicates": "n.d. n.d. n.d. n.d. n.d. n.d.", "control signals": "0 of 18"}
{"changes": "G26R F59A", "log10 Kd, replicates": "n.d. n.d. n.d. 2.32 2.47 2.00", "control signals": "0 of 18"}
{"changes": "F59S S107Q", "log10 Kd, replicates": "n.d. 2.19 4.12 n.d. n.d. n.d.", "control signals": "0 of 18"}
{"changes": "L29I N30E S31D S35D S107D", "log10 Kd, replicates": "n.d. n.d. n.d. n.d. n.d. n.d.", "control signals": "0 of 18"}
{"changes": "F27V R56Y", "log10 Kd, replicates": "n.d. n.d. n.d. n.d. n.d. n.d.", "control signals": "0 of 18"}
{"changes": "F59Q D62P G103I F105D", "log10 Kd, replicates": "n.d. n.d. n.d. n.d. n.d. n.d.", "control signals": "0 of 18"}
{"changes": "T28N Y32F R56L T58V Y60M", "log10 Kd, replicates": "n.d. n.d. n.d. n.d. n.d. n.d.", "control signals": "0 of 18"}
{"changes": "R100H A102P", "log10 Kd, replicates": "n.d. n.d. n.d. n.d. 2.16 n.d.", "control signals": "0 of 18"}
{"changes": "T28S R56F S63E T104E", "log10 Kd, replicates": "n.d. n.d. n.d. n.d. n.d. n.d.", "control signals": "0 of 18"}

3 of these entries, quoted again:

{"changes": "F59Y F105D", "log10 Kd, replicates": "n.d. n.d. 2.20 n.d. n.d. 2.73", "control signals": "0 of 18"}
{"changes": "R100K S107D", "log10 Kd, replicates": "n.d. n.d. n.d. 1.43 n.d. n.d.", "control signals": "0 of 18"}
{"changes": "T28M G61H R100W A101T", "log10 Kd, replicates": "-0.48 -0.28 0.07 -0.33 n.d. -0.33", "control signals": "0 of 18"}

In the paper, a design with two or fewer of six values counts as a poor binder. The parent sequence was in this pool as ten entries: three were never detected, three once, and four in most replicates, with averages from 0.34 to 2.37. Values of this round are not directly comparable with the first-round values of the same sequences.